Source: PubChem BioAssay AID1018 (Sanford-Burnham Center for Chemical Genomics, 2008)
Only a part is listed here, and it is no random draw. Some results for these compounds are left out of this collection, so the calls shown say nothing about other tests. The source made the active and inactive calls. Cut-off read from the data, not from the text of the source: active = displacement above about 50%; inactive = the rest.

The chains behind the UniProt entries cited, without tags or fusion partners.
UniProt P98170, whole entry: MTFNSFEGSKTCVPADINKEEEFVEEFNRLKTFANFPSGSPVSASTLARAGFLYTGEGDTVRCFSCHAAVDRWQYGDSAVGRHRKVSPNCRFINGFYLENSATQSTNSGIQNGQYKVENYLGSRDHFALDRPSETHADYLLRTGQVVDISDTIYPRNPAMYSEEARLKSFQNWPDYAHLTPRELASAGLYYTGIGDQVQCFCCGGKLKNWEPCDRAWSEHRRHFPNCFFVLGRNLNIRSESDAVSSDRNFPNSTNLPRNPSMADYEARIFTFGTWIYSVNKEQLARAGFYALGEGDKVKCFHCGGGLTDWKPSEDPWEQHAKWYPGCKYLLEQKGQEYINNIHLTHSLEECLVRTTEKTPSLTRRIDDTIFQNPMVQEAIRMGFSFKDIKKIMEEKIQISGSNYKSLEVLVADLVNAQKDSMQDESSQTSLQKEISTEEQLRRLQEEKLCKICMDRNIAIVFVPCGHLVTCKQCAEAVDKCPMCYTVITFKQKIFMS

What follows are molecules tested against E3 ubiquitin-protein ligase XIAP (Homo sapiens) (UniProt P98170) (assay: XIAP antagonists, biochemical, IAP family, fluorescence polarization (AID 1018)). Conditions: XIAP BIR domain, fluorescence polarization peptide displacement; at 20 µM; hits give high values.
For `CN(C)c1cccc(C(=O)NCC2(N(C)C)CCCCC2)c1`, the displacement was inactive: -6.1%. With `O=C(OC1CN2CCC1CC2)C(CO)(c1ccccc1)c1ccccc1` (centres undefined) the displacement was inactive: -4.4%. `COc1cccc(C(=O)NCC2(N3CCCCC3)CCCCC2)c1` was tested, and the displacement was inactive: -3.4%. In the case of `C=CCN1CCN(CCOC(=O)C(O)(c2ccccc2)c2ccccc2)CC1`, the displacement was inactive: -4.1%. In the case of `CCN1CCCC(OC(=O)C2(O)c3ccccc3C=Cc3ccccc32)C1` (centres undefined), the displacement was inactive: -0.8%. `CN(C)C1CCCC1OC(=O)C(O)(c1ccccc1)c1ccccc1` (centres undefined) was tested, and the displacement was inactive: -2.3%. For `Cc1ccccc1C(=O)NCC1(N2CCCCC2)CCCCC1`, the displacement was inactive: -6.7%. `CC(C)N1C(=O)CC2(CCN(CCOC(=O)C(O)(c3ccccc3)c3ccccc3)CC2)C1=O` was tested, and the displacement was inactive: -3%. `O=C(NCC1(N2CCCCC2)CCCCC1)c1cc([N+](=O)[O-])ccc1Cl` was tested, and the displacement was inactive: 0.3%.
